Laboratory results taken from ChEMBL document CHEMBL5584345, “Discovery of Novel 2-Aminopyridine-Based and 2-Aminopyrimidine-Based Derivatives as Potent CDK/HDAC Dual Inhibitors for the Treatment of Refractory Solid Tumors and Hematological Malignancies” (J Med Chem, 2024).

The chains behind the UniProt entries cited, without tags or fusion partners. Where a name states a change or a piece, a line headed by the entry shows the natural chain unless it says otherwise.
UniProt P36888, whole entry: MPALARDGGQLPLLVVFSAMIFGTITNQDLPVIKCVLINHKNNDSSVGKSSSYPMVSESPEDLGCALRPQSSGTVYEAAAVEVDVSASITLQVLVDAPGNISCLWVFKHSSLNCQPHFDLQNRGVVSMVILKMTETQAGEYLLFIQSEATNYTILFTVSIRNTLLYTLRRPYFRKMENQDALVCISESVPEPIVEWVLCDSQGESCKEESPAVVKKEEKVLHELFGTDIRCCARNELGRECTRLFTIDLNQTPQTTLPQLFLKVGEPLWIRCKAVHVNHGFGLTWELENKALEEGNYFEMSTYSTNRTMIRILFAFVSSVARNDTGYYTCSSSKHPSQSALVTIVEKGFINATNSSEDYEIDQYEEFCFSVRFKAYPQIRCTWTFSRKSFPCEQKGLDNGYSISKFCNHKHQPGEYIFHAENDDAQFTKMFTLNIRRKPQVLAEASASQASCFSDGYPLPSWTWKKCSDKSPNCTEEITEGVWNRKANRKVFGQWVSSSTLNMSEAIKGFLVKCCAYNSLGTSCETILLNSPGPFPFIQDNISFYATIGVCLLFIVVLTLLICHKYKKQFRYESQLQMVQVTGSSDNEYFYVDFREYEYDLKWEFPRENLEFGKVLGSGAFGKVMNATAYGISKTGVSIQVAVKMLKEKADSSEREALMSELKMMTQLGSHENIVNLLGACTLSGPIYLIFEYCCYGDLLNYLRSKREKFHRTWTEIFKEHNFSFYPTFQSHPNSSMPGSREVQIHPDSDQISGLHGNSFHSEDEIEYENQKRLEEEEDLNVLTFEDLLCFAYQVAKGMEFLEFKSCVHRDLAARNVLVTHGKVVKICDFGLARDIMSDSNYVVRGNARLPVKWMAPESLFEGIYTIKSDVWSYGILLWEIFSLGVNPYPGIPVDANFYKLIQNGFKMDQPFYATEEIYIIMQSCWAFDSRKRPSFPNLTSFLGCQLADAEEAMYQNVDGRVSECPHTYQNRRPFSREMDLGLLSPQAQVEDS
UniProt Q9NWZ3, whole entry: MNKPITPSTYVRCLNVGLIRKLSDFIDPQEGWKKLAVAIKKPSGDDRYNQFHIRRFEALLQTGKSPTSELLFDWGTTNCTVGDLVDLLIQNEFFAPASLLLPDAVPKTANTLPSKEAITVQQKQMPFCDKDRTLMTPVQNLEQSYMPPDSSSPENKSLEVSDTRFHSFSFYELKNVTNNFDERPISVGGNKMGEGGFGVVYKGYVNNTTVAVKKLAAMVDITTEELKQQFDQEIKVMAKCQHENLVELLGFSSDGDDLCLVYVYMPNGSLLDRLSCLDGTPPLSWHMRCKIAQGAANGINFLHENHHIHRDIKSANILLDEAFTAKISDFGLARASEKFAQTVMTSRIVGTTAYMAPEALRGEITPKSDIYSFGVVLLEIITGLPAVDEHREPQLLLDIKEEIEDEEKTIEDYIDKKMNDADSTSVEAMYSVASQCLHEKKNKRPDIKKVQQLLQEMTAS
UniProt P11802: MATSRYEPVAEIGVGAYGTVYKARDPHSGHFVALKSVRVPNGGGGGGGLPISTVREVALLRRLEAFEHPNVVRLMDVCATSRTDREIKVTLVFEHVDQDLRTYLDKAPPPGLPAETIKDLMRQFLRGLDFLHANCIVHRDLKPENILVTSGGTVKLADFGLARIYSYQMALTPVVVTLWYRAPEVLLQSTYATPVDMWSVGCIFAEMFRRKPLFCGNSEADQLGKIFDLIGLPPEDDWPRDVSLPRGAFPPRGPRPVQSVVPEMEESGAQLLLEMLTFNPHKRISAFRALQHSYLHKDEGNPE
UniProt Q00534, whole entry: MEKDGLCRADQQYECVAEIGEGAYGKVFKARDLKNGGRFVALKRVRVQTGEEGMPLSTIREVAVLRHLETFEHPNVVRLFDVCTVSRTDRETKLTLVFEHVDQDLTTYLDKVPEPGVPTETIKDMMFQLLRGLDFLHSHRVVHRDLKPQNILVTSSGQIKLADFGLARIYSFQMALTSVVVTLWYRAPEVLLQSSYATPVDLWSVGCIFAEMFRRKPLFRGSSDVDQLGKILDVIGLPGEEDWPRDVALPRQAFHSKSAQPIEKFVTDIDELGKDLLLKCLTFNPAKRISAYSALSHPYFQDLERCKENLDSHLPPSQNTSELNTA
UniProt O94921: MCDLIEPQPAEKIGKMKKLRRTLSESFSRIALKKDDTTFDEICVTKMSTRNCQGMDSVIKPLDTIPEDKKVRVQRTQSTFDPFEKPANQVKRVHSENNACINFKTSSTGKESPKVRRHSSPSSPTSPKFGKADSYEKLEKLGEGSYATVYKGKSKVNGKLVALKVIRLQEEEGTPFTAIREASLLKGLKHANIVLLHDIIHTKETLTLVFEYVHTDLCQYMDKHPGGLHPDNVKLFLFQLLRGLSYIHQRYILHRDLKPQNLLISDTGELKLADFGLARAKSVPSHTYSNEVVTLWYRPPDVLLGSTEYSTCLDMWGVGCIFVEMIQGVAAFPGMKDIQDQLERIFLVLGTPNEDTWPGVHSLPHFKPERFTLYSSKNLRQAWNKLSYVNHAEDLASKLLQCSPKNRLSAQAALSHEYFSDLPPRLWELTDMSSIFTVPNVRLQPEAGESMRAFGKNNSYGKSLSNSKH
UniProt Q00536: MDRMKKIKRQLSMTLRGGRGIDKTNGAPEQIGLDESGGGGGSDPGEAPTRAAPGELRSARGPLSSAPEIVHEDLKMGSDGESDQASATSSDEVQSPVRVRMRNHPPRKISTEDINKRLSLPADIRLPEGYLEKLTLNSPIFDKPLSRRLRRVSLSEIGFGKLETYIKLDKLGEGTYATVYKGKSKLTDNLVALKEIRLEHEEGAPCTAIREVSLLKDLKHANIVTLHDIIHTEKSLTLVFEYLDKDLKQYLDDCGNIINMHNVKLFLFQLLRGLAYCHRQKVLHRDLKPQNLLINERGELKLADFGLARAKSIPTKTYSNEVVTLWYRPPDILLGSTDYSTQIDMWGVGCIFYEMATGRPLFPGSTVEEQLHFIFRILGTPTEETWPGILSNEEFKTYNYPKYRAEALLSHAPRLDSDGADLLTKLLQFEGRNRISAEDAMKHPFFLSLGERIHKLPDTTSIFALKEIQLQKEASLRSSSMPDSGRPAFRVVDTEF
UniProt Q00537: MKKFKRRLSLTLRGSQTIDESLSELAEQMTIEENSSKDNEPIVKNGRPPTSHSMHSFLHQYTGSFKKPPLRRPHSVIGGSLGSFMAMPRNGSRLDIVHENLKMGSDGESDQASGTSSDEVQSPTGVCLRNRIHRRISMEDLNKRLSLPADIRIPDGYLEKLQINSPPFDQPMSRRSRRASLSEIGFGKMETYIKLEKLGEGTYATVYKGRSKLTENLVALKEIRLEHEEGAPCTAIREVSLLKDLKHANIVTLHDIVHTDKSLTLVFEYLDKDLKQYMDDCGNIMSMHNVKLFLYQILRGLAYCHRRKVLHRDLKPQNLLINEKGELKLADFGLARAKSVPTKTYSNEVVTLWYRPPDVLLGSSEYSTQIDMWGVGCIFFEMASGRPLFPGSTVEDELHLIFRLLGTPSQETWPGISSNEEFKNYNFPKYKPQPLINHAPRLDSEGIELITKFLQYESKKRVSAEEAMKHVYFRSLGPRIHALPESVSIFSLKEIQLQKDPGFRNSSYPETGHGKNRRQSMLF
UniProt Q07002: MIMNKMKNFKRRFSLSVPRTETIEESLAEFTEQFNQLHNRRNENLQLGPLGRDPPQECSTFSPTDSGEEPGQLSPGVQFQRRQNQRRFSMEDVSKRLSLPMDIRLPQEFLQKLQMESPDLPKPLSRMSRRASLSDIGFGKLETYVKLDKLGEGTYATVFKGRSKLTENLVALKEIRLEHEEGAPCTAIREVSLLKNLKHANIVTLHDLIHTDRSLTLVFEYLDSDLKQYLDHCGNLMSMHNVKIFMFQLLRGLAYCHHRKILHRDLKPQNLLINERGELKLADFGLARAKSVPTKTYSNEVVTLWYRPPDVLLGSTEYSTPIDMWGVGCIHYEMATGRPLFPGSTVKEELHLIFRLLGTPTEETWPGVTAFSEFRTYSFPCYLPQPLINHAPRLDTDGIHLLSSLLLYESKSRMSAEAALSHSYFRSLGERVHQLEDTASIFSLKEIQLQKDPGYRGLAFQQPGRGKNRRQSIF
UniProt P56524: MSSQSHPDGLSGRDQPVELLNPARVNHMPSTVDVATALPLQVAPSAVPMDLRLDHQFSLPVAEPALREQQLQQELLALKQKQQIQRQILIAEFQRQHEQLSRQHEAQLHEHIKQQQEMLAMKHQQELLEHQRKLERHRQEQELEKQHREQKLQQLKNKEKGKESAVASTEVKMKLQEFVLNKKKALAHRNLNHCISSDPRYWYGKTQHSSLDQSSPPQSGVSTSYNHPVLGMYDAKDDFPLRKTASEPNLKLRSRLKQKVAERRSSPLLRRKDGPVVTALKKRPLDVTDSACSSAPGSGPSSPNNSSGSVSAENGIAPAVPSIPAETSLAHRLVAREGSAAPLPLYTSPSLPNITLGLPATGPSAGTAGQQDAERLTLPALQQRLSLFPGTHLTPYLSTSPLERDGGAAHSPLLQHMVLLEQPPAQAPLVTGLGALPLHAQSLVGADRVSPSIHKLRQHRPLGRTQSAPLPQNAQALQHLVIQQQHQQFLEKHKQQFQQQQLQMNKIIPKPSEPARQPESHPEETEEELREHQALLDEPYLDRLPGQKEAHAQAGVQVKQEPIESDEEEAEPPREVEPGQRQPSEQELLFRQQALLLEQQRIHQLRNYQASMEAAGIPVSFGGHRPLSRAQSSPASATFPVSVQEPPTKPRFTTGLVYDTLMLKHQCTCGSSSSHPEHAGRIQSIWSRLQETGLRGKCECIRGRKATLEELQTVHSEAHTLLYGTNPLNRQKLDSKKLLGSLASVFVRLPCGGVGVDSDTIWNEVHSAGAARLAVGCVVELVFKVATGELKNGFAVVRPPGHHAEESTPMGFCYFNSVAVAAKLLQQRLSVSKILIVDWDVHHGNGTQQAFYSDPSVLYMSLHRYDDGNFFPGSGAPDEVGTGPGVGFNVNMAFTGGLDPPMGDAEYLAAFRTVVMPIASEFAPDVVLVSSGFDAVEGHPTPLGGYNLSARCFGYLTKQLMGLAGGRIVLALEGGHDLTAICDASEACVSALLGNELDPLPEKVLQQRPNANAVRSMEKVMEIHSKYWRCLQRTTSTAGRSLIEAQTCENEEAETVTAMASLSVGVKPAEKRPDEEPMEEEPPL
UniProt Q9UQL6: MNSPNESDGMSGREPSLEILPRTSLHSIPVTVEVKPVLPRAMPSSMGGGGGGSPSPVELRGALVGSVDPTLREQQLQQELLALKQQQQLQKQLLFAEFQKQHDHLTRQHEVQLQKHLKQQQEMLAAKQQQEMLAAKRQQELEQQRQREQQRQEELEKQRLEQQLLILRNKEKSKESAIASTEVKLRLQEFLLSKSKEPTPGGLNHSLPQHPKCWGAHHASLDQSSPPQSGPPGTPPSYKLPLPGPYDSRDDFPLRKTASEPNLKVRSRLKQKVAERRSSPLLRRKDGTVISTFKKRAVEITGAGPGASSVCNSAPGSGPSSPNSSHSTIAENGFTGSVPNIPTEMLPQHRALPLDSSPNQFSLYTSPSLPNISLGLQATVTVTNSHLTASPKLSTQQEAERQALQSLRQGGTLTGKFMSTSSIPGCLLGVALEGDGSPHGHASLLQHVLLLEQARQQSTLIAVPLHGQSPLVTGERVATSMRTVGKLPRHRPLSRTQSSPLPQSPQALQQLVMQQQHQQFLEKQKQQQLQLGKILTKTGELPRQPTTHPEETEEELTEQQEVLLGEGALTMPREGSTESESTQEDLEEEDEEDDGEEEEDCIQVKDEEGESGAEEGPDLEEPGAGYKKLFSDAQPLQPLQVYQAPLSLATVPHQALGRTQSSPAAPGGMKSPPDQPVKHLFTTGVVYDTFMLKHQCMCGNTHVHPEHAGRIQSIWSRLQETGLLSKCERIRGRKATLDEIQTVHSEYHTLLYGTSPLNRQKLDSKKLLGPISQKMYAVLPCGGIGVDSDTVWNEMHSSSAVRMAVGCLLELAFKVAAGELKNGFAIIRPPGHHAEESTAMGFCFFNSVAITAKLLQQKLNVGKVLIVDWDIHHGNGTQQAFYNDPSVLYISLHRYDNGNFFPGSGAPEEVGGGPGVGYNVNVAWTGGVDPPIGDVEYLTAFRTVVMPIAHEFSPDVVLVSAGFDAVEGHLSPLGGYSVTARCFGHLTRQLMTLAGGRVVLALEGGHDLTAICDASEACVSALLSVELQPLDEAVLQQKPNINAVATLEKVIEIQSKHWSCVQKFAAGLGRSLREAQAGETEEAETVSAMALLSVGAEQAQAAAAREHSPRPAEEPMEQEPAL

Assays:
[1] = target: Receptor-type tyrosine-protein kinase FLT3 (Homo sapiens, UniProt P36888); assay: Inhibition of FLT3 (unknown origin) at 10 uM relative to control
[2] = target: T1, Tyrosine-protein kinase JAK3 (Homo sapiens) (UniProt P52333); assay: Inhibition of JAK3 (unknown origin) at 10 uM relative to control
T1 sequence (whole entry): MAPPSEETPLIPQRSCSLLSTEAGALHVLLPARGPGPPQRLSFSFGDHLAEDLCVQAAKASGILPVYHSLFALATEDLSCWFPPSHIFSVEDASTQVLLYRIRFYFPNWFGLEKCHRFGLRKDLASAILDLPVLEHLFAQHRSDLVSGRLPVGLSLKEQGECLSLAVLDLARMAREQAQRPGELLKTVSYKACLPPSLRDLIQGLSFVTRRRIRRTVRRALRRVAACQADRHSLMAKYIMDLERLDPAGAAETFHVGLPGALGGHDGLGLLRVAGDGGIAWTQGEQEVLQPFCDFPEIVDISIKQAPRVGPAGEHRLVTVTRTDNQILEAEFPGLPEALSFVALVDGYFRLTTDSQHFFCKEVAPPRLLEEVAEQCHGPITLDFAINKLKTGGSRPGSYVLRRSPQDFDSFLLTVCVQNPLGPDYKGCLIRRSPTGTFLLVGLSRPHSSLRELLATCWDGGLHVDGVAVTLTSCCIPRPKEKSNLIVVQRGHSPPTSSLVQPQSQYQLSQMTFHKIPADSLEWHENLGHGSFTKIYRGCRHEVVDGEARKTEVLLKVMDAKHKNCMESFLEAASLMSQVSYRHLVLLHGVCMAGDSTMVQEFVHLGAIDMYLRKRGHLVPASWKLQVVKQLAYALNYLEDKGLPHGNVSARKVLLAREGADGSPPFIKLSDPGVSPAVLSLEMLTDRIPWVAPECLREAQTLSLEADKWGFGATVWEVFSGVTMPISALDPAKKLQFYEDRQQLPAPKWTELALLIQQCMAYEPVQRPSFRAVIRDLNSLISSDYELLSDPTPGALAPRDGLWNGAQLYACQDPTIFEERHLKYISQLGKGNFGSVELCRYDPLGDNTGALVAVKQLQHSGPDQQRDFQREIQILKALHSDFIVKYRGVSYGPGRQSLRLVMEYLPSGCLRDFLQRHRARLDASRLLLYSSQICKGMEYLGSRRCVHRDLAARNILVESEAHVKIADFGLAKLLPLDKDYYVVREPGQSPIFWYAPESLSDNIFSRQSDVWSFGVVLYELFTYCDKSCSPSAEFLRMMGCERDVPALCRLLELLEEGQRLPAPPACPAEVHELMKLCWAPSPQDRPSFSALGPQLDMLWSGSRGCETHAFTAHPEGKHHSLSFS

[3] = target: Epidermal growth factor receptor (Homo sapiens, UniProt P00533); assay: Inhibition of EGFR (unknown origin) at 10 uM relative to control
[4] = target: T2, Serine/threonine-protein kinase 17B (Homo sapiens) (UniProt O94768); assay: Inhibition of DRAK2 (unknown origin) at 10 uM relative to control
T2 sequence (whole entry): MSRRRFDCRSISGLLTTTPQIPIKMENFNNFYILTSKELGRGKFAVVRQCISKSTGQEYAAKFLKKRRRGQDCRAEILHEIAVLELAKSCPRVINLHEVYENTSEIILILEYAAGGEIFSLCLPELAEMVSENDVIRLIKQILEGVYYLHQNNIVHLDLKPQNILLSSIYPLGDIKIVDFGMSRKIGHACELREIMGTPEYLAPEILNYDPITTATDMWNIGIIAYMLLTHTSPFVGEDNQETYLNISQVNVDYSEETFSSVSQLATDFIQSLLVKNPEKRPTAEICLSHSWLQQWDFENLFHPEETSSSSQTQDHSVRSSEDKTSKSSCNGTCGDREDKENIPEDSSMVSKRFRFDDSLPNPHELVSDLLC

[5] = target: Ribosomal protein S6 kinase beta-1 (Homo sapiens, UniProt P23443); assay: Inhibition of P70S6K (unknown origin) at 10 uM relative to control
[6] = target: T3, Aurora kinase A (Homo sapiens) (UniProt O14965); assay: Inhibition of AurorA (unknown origin) at 10 uM relative to control
T3 sequence (whole entry): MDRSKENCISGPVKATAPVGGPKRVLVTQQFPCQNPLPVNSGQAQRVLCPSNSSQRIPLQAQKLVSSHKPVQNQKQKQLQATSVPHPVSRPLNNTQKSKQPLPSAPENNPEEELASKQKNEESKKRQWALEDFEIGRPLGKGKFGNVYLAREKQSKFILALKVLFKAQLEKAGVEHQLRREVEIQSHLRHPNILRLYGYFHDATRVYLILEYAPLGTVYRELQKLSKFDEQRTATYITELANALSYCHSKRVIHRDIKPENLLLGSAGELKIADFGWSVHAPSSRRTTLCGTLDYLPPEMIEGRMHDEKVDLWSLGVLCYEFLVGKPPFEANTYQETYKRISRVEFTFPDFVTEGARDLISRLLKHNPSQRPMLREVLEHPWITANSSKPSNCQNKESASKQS

[7] = target: Interleukin-1 receptor-associated kinase 4 (Homo sapiens, UniProt Q9NWZ3); assay: Inhibition of IRAK4 (unknown origin) at 10 uM relative to control
[8] = target: Tyrosine-protein kinase BTK (Homo sapiens, UniProt Q06187); assay: Inhibition of BTK (unknown origin) at 10 uM relative to control
[9] = target: Cyclin-dependent kinase 4 (Homo sapiens) (UniProt P11802); assay: Inhibition of CDK4 (unknown origin) at 10 uM
[10] = target: Cyclin-dependent kinase 6 (Homo sapiens) (UniProt Q00534); assay: Inhibition of CDK6 (unknown origin) at 10 uM
[11] = target: Cyclin-dependent kinase 14 (Homo sapiens) (UniProt O94921); assay: Inhibition of CDK14 (unknown origin) at 10 uM
[12] = target: Cyclin-dependent kinase 16 (Homo sapiens) (UniProt Q00536); assay: Inhibition of CDK16 (unknown origin) at 10 uM
[13] = target: Cyclin-dependent kinase 17 (Homo sapiens) (UniProt Q00537); assay: Inhibition of CDK17 (unknown origin) at 10 uM
[14] = target: Cyclin-dependent kinase 18 (Homo sapiens) (UniProt Q07002); assay: Inhibition of CDK18 (unknown origin) at 10 uM
[15] = target: Histone deacetylase 2 (Homo sapiens) (UniProt Q92769); assay: Inhibition of HDAC2 (unknown origin) at 10 uM
[16] = target: Histone deacetylase 4 (Homo sapiens, UniProt P56524); assay: Inhibition of HDAC4 (unknown origin) at 10 uM
[17] = target: Histone deacetylase 5 (Homo sapiens) (UniProt Q9UQL6); assay: Inhibition of HDAC5 (unknown origin) at 10 uM
[18] = target: T4, Histone deacetylase 7 (Homo sapiens) (UniProt Q8WUI4); assay: Inhibition of HDAC7 (unknown origin) at 10 uM
T4 sequence (whole entry): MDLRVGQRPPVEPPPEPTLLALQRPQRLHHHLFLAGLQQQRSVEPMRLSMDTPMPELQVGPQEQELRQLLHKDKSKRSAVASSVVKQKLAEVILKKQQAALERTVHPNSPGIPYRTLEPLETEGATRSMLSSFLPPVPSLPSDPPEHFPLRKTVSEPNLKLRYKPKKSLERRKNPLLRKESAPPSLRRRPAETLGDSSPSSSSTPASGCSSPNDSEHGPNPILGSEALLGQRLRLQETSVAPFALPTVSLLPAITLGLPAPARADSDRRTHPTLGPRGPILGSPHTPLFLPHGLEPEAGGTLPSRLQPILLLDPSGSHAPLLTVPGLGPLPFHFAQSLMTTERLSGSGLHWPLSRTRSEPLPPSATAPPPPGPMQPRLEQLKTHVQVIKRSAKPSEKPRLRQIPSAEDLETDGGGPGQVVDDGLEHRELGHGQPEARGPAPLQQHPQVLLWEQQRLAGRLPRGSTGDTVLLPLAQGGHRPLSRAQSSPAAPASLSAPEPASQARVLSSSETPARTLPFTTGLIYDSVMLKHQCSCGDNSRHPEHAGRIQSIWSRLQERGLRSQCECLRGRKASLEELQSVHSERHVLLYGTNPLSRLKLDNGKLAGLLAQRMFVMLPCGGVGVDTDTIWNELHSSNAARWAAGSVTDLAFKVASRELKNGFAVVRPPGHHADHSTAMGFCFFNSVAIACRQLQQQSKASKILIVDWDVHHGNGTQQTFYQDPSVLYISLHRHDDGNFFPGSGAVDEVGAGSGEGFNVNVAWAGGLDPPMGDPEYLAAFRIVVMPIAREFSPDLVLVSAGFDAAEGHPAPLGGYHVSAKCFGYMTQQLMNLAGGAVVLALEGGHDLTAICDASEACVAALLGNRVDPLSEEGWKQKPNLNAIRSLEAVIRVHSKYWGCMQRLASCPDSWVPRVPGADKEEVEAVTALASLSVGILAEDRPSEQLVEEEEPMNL

[19] = target: T5, Histone deacetylase 8 (Homo sapiens) (UniProt Q9BY41); assay: Inhibition of HDAC8 (unknown origin) at 10 uM
T5 sequence (whole entry): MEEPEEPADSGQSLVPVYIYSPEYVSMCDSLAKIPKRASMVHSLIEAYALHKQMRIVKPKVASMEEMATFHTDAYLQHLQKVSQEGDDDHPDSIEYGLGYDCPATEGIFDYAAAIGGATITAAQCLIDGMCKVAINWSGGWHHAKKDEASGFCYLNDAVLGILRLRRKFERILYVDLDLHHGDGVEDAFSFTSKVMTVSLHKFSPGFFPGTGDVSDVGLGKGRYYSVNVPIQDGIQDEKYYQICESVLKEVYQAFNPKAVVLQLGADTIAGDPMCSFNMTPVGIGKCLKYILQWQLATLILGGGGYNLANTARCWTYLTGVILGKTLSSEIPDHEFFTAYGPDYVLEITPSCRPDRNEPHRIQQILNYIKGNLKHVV

[20] = tested on: MV4-11; assay: Synergistic anticancer activity against human MV4-11 cells incubated for 72 hrs in presence of SAHA by CCK-8 assay; type: functional, cell-based

CCCNNC(=O)c1ccc(Cn2cc(Nc3ncc(Cl)c(-c4cnc5ccccn45)n3)cn2)cc1
inhibition [1]: 98.1% | inhibition [2]: 82.3% | inhibition [3]: 40.1% | inhibition [4]: 13.2% | inhibition [5]: 48.4% | inhibition [6]: 96.7% | inhibition [7]: 39.2% | inhibition [8]: 56.7%

N#CC1(CNc2cccc(-c3cc(Nc4cnn(Cc5ccc(C(=O)Nc6ccccc6N)cc5)c4)ncc3Cl)n2)CCOCC1
inhibition [1]: 49.8% | inhibition [2]: 3.35% | inhibition [3]: 4.44% | inhibition [4]: 9.96% | inhibition [5]: 37.2% | inhibition [6]: 23% | inhibition [7]: 3.11% | inhibition [8]: -3.19% | inhibition [9]: inactive | inhibition [10]: inactive | inhibition [11]: inactive | inhibition [12]: inactive | inhibition [13]: inactive | inhibition [14]: inactive | inhibition [15]: inactive | inhibition [16]: inactive | inhibition [17]: inactive | inhibition [18]: inactive | inhibition [19]: inactive

COC[C@@H](C)N[C@H]1CC[C@H](Nc2cc(-c3cccc(NCC4(C#N)CCOCC4)n3)c(Cl)cn2)CC1
Activity [20]: Active

Activity calls are given as the source filed them. No cut-off for these calls is given here.
